A short description of this data set: Peptide partition from solution to membrane followed by tryptophan intrinsic fluorescence titration. The format is physicochemical. The settings on record: SUVs DOPC/DOPE/DOPG/Chol 4:3:2:1; tryptophan fluorescence and CD. On the procedure: Small unilamellar vesicles (SUVs) were prepared at a lipid concentration of 10 mM from POPC and POPG at a molar ratio of 10:0 or 8:2 or from DOPC, DOPE, DOPG, Chol at molar ratio 10:0:0:0, 8:0:2:0, 7:3:0:0, 7:0:0:3, 6:3:0:1, and 4:3:2:1 in buffer A, as previously described. Briefly, SUVs were prepared by reverse-phase evaporation and passed through polycarbonate filters 0.8-, 0.4-, and 0.2-μm (Merck Millipore, Darmstadt, Germany). Vesicles were sonicated using a sonicator tip and their hydrodynamic diameters, dispersity, and charge were checked by dynamic light scattering (DLS) and electrophoretic mobility using a NanoZS instrument (Malvern Instruments, Orsay, France).
Fluorescence titrations were performed with a FP-8200 Jasco spectrofluorimeter, equipped with a Peltier-thermostated ETC-272T (25 °C). […] Fluorescence experiments were carried out in a 109.004F-QS cuvette (Hellma, France) with constant stirring. Fluorescence emission was recorded between 300 and 400 nm at a scan rate of 200 nm/min, with an excitation wavelength of 280 nm. Fluorescence emission spectra were corrected for SUV light scattering. Maximum emission wavelength (λmax) and fluorescence intensity ratio at 330 nm over 370 nm (P454-derived peptides) or at 340 nm over 380 nm (CyaA-derived peptides) were used to report peptide-membrane interaction and to measure the partition coefficient KX. […]

Entries after “also recorded” stand apart in the source; their conditions may differ.

With `CSCC[C@H](NC(=O)[C@H](CC(=O)O)NC(=O)[C@H](CO)NC(=O)[C@@H](NC(=O)[C@H](CCC(=O)O)NC(=O)CNC(=O)[C@H](CC(C)C)NC(=O)[C@H](CO)NC(=O)[C@H](Cc1c[nH]c2ccccc12)NC(=O)[C@H](CO)NC(C)=O)C(C)C)C(=O)N[C@@H](C)C(=O)N[C@@H](C)C(=O)N[C@H](C(=O)N[C@@H](CCC(=O)O)C(=O)N[C@@H](C)C(=O)N[C@@H](C)C(=O)N[C@@H](CCC(=O)O)C(=O)N[C@@H](CC(C)C)C(=O)N[C@@H](CCC(=O)O)C(=O)N[C@@H](CCSC)C(=O)N[C@H](C(=O)N[C@@H](CCCNC(=N)N)C(=O)N[C@@H](CCC(N)=O)C(=O)N[C@H](C(=O)N[C@@H](CC(C)C)C(=O)N[C@@H](Cc1c[nH]cn1)C(=O)N[C@@H](C)C(N)=O)C(C)C)[C@@H](C)O)C(C)C` [Peptide P414], the “ability to interact with / partition into membranes” value is listed as “no detectable change of tryptophan fluorescence or CD signature; also recorded: do not”.

The values above are taken from PMC5705984, “Membrane-Active Properties of an Amphitropic Peptide from the CyaA Toxin Translocation Region” (Toxins, 2017).
